Antibody variant affinities, Ab-91 heavy chain, assay 2

Data: MIT Lincoln Laboratory AlphaSeq set, Engelhart et al. 2022, doi:10.1038/s41597-022-01779-4, as distributed in FLAb.

Target peptide (SARS-CoV-2 spike, HR2 region): PDVDLGDISGINAS

Parent scFv Ab-91: VL joined to VH by a 15-residue (Gly4Ser)3 linker. Changes lie in the heavy chain CDRs alone.
VL: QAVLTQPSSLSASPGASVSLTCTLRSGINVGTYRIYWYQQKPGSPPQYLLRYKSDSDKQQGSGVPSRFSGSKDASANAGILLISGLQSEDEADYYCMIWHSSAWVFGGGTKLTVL
VH: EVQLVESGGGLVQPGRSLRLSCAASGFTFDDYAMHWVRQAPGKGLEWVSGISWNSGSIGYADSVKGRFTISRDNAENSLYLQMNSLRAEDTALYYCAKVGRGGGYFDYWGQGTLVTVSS

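Phage display of a naive human antibody library on the peptide gave the parent. Library AAYL51 holds single substitutions and randomly drawn double and triple substitutions in the CDRs. In AlphaSeq, yeast of one mating type display the scFv and yeast of the other type display the target. After mating in shaken culture at 30 °C for 16 h, diploids were selected and their barcode pairs sequenced. Scores were corrected for input abundance and mapped to Kd with protein pairs of known affinity run in the same pool. Mating was done three times.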

Substitutions are numbered in sequence along the VH above, starting at 1 (not Kabat).
Every variant below is changed at S57 of the VH (sequential numbering).
Affinities are written as log10 Kd with Kd in nM; a lower number is a better binder.
A mean of the replicates is given; it leaves out those without a signal.
"nd" means that the variant was in the library but no mating with the target was seen in any replicate; the authors take this as a sign of poor binding, and no number exists.
Nonspecific signal, from three strains lacking the peptide, appeared in 21% of pairings of library AAYL51, centred on 4.54 (5% of these signals below 3.26); values are not corrected for it.
In this assay the parent's reference entry averaged 1.86; its copy inside this library read 0.88.

changes,mean log10 Kd (nM),seen in
S57L+G100N+Y108I,4.43,2 of 3
S57M+R101P+F106W,nd,0 of 3
S57K+K65P,nd,0 of 3
I51E+S57M+D107H,nd,0 of 3
S57A+I58Q+Y60H,nd,0 of 3
G56H+S57M,2.04,3 of 3
S52V+N54I+S57D,5.74,3 of 3
M34Q+S57A+R101A,4.88,3 of 3
S57E,0.66,3 of 3
G56D+S57P+G103Y,nd,0 of 3

2 of these entries, quoted again:

{"changes": "S57K+K65P", "mean log10 Kd (nM)": "nd", "seen in": "0 of 3"}
{"changes": "M34Q+S57A+R101A", "mean log10 Kd (nM)": "4.88", "seen in": "3 of 3"}